{
  "sequences": {"note": "Amino acid sequences for entries named in this document (tags omitted).", "UniProt P0DMS8, whole entry": "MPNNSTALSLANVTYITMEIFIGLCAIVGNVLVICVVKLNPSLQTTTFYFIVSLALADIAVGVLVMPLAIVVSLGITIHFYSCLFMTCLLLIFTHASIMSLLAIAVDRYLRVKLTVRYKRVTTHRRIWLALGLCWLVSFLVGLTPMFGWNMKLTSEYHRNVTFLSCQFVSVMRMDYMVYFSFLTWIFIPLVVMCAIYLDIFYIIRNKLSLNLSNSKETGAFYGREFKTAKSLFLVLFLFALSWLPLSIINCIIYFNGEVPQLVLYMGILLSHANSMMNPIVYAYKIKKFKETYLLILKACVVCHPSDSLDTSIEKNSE", "UniProt P29275, whole entry": "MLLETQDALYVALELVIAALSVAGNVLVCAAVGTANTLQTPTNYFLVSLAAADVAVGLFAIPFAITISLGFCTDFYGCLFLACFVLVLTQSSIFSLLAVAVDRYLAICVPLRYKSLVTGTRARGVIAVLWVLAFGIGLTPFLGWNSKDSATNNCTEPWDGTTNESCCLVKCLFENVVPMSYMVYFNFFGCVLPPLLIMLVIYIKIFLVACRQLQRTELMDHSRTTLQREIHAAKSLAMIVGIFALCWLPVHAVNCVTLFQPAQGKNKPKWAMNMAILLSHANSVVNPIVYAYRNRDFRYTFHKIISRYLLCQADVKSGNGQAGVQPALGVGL", "UniProt P30542, whole entry": "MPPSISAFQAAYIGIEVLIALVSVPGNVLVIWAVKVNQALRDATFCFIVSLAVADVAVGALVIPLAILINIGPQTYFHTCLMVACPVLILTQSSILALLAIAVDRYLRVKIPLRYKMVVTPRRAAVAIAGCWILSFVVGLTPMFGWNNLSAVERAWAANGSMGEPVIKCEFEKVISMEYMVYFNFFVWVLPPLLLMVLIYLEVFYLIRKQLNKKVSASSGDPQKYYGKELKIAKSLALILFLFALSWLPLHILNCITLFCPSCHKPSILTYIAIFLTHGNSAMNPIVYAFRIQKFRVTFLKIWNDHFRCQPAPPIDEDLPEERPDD"},
  "source": "patent US20260384439A1",
  "about": "“[1,2,4]-TRIAZOLO[4,3-B]PYRIDAZINE DERIVATIVES USEFUL AS A MEDICAMENT” (published 2026)",
  "key": {"[1]": {"experiment": "Stability noted in HPLC analysis of final compounds"}, "A3AR [2]": {"target": "T1, A3AR (Homo sapiens, UniProt P0DMS8)", "experiment": "Adenosine receptor A3AR antagonism radioligand assay ([125I]-AB-MECA)", "details": "read-out: Potency Class A3AR (IC50), [125I]-AB-MECA 0.15 nM, r.t., 120 min, HEK-293 cells"}, "[3]": {"test_system": "A549 (human lung carcinoma)", "experiment": "Antiproliferative activity of cisplatin with compound (175), MTS assay, A549"}, "[4]": {"test_system": "ciliated hair cells of organs of Corti", "experiment": "Otoprotection in ex vivo cultured organs of Corti (hair cell death by ototoxins)", "details": "for hair cell death: 24 hrs"}, "human recombinant A2AAR": {"target": "human recombinant A2AAR (Homo sapiens, UniProt P29274)", "experiment": "Adenosine receptor A2AAR antagonism radioligand assay ([3H]-CGS)", "details": "FIG. 3"}, "panel of 168 GPCRs": {"test_system": "panel of 168 GPCRs", "experiment": "Panel of 168 GPCRs, PathHunter β-arrestin EFC: all other GPCRs", "details": "agonist and antagonist mode; 0.1 μM compound (175) (FIG. 2)"}, "[5]": {"test_system": "MDA-435 (human breast cancer)", "experiment": "Antiproliferative activity of cisplatin with compound (175), MTS assay, MDA-435"}, "human recombinant A2BAR": {"target": "human recombinant A2BAR (Homo sapiens, UniProt P29275)", "experiment": "Adenosine receptor A2BAR antagonism radioligand assay ([3H]-CPX)", "details": "FIG. 3"}, "human recombinant A1AR": {"target": "human recombinant A1AR (Homo sapiens, UniProt P30542)", "experiment": "Adenosine receptor A1AR antagonism radioligand assay ([3H]-CCPA)", "details": "FIG. 3"}, "A3AR [6]": {"target": "T1, A3AR", "experiment": "A3AR functional assay, agonist mode (cAMP, HTRF)", "details": "1 nM to 3.3 μM compound (175); no stimulus"}, "A3AR [7]": {"target": "T1, A3AR", "experiment": "Panel of 168 GPCRs, PathHunter β-arrestin EFC: A3AR", "details": "antagonist mode; 0.1 μM compound (175) (FIG. 2)"}, "[8]": {"test_system": "PANC-1 (human pancreatic cancer)", "experiment": "Antiproliferative activity of cisplatin with compound (175), MTS assay, PANC-1"}, "[9]": {"details": "read-out: IC50 of compound (175) alone, no cisplatin"}, "[10]": {"details": "read-out: Cisplatine IC50, compound (175) 0.0 μM"}, "[11]": {"details": "read-out: Cisplatine IC50, compound (175) 0.3 μM"}, "[12]": {"details": "read-out: Cisplatine IC50, compound (175) 1.0 μM"}},
  "note": "Where two headings read alike, the source gives them in different places. Marks after values point to notes of the source that are not given here.",
  "data": [
    {"compound": "c1ccc(CNc2cc(NC3CC3)nn3c(C4CC4)nnc23)nc1", "values": [
      {"measurement": "HPLC (stability remark in place of or beside purity)", "setting": "[1]; alkaline conditions", "value": "88%^b (unstable)"}
    ]},
    {"compound": "[2H]C([2H])([2H])Oc1ccc(Nc2cc(NC(CC)CC)nn3c(C(C)C)nnc23)nn1", "values": [
      {"measurement": "IC50", "setting": "A3AR [2]", "value": "< 0.001", "unit": "µM"}
    ]},
    {"compound": "CCC(CC)Nc1cc(NC(=O)Oc2ccccc2)c2nnc(C(C)C)n2n1", "values": [
      {"measurement": "HPLC (stability remark in place of or beside purity)", "setting": "[1]; alkaline conditions", "value": "Unstable^b"}
    ]},
    {"compound": "CCC(CC)Nc1cc(Nc2ccc(OC)nn2)c2nnc(C(C)C)n2n1", "values": [
      {"measurement": "IC50", "setting": "A3AR [2]", "value": "< 0.001", "unit": "µM"}
    ]},
    {"compound": "CCC(CC)CNc1cc(Nc2cccnn2)c2nnc(C3CC3)n2n1", "values": [
      {"measurement": "IC50", "setting": "A3AR [2]", "value": "< 0.001", "unit": "µM"}
    ]},
    {"compound": "CCC(CC)CNc1cc(Nc2ccc(Cl)nn2)c2nnc(C(C)C)n2n1", "values": [
      {"measurement": "IC50", "setting": "A3AR [2]", "value": "< 0.001", "unit": "µM"}
    ]},
    {"compound": "CCC(CC)Nc1cc(Nc2ccnc(Cl)n2)c2nnc(C(C)C)n2n1", "values": [
      {"measurement": "IC50", "setting": "A3AR [2]", "value": "< 0.001", "unit": "µM"}
    ]},
    {"compound": "CSCCCNc1cc(NCc2ccccc2)c2nnc(C(C)C)n2n1", "values": [
      {"measurement": "HPLC (stability remark in place of or beside purity)", "setting": "[1]; acidic conditions", "value": "Unstableª"}
    ]},
    {"compound": "CCC(CC)Nc1cc(NC(=O)Cc2ccccn2)c2nnc(C(C)C)n2n1", "values": [
      {"measurement": "IC50", "setting": "A3AR [2]", "value": "0.001 to 0.01", "unit": "µM"}
    ]},
    {"compound": "CCC(CC)CCNc1cc(Nc2cccnn2)c2nnc(C(C)C)n2n1", "values": [
      {"measurement": "IC50", "setting": "A3AR [2]", "value": "< 0.001", "unit": "µM"}
    ]},
    {"compound": "CCC(CC)Nc1cc(Nc2ccc(Cl)nn2)c2nnc(C(C)C)n2n1", "values": [
      {"measurement": "IC50", "setting": "A3AR [2]", "value": "< 0.001", "unit": "µM"}
    ]},
    {"compound": "CCC(CC)CNc1cc(Nc2ccc(OC)nn2)c2nnc(C(C)C)n2n1", "values": [
      {"measurement": "IC50", "setting": "A3AR [2]", "value": "< 0.001", "unit": "µM"}
    ]},
    {"compound": "CCC(CC)Nc1cc(Nc2ccnc(OC)n2)c2nnc(C(C)C)n2n1", "values": [
      {"measurement": "IC50", "setting": "A3AR [2]", "value": "< 0.001", "unit": "µM"}
    ]},
    {"compound": "CCC(CC)Nc1cc(Nc2cc(OC)ncn2)c2nnc(C(C)C)n2n1", "values": [
      {"measurement": "IC50", "setting": "A3AR [2]", "value": "< 0.001", "unit": "µM"}
    ]},
    {"compound": "CCC(CC)CNc1cc(Nc2ccc(OC)nn2)c2nnc(C3CC3)n2n1", "values": [
      {"measurement": "IC50", "setting": "A3AR [2]", "value": "< 0.001", "unit": "µM"}
    ]},
    {"compound": "CCC(CC)Nc1cc(Nc2ncncc2OC)c2nnc(C(C)C)n2n1", "values": [
      {"measurement": "IC50", "setting": "A3AR [2]", "value": "0.1 to 1", "unit": "µM"}
    ]},
    {"compound": "CCC(CC)Nc1cc(Nc2cccnn2)c2nnc(C3CC3)n2n1", "values": [
      {"measurement": "IC50", "setting": "[3]; [9]", "value": "> 100", "unit": "µM"},
      {"measurement": "prevention of hair cell death", "setting": "[4]; 0.1-1 μM compound (175) with cisplatin 20 μM, gentamycin 100 μM or neomycin 3 mM", "value": "prevented cell death"},
      {"measurement": "level of cell death, ototoxin vs ototoxin + compound (175), statistics", "setting": "[4]; cisplatin, gentamycin or neomycin", "value": "statistically different"},
      {"measurement": "selectivity of A3AR compared to A2AAR", "setting": "human recombinant A2AAR", "value": "selective of A3AR"},
      {"measurement": "impact on all other GPCRs", "setting": "panel of 168 GPCRs", "value": "not or marginally impacted"},
      {"measurement": "IC50", "setting": "[5]; [9]", "value": "> 100", "unit": "µM"},
      {"measurement": "selectivity of A3AR compared to A2BAR", "setting": "human recombinant A2BAR", "value": "selective of A3AR"},
      {"measurement": "selectivity of A3AR compared to A1AR", "setting": "human recombinant A1AR", "value": "selective of A3AR"},
      {"measurement": "agonist effect on A3AR", "setting": "A3AR [6]", "value": "no agonist effect was detected"},
      {"measurement": "inhibition of A3AR among 168 GPCRs", "setting": "A3AR [7]", "value": "fully inhibited"},
      {"measurement": "IC50", "setting": "[8]; [9]", "value": "> 100", "unit": "µM"}
    ]},
    {"compound": "CCC(CC)Nc1cc(NC(=O)Cc2ccncc2)c2nnc(C(C)C)n2n1", "values": [
      {"measurement": "IC50", "setting": "A3AR [2]", "value": "< 0.001", "unit": "µM"}
    ]},
    {"compound": "gentamycin", "values": [
      {"measurement": "hair cell death", "setting": "[4]; gentamycin 100 μM", "value": "induced the death of hair cells"}
    ]},
    {"compound": "cisplatin", "values": [
      {"measurement": "change of cisplatin cytotoxicity with compound (175)", "setting": "[3]", "value": "slightly increased"},
      {"measurement": "hair cell death", "setting": "[4]; cisplatin 20 μM", "value": "induced the death of hair cells"},
      {"measurement": "change of cisplatin cytotoxicity with compound (175)", "setting": "[5]", "value": "slightly increased"},
      {"measurement": "IC50", "setting": "[5]; [10]", "value": 11.2, "unit": "µM"},
      {"measurement": "IC50", "setting": "[5]; [11]", "value": 6.4, "unit": "µM"},
      {"measurement": "IC50", "setting": "[5]; [12]", "value": 5.6, "unit": "µM"},
      {"measurement": "change of cisplatin IC50 with compound (175)", "setting": "[8]", "value": "doubling of the cisplatin IC50 value"},
      {"measurement": "IC50", "setting": "[8]; [10]", "value": 13.5, "unit": "µM"},
      {"measurement": "IC50", "setting": "[8]; [11]", "value": 25.2, "unit": "µM"},
      {"measurement": "IC50", "setting": "[8]; [12]", "value": 20.3, "unit": "µM"},
      {"measurement": "IC50", "setting": "[8]; read-out: Cisplatine IC50, compound (175) 3.0 μM", "value": 19.9, "unit": "µM"},
      {"measurement": "IC50", "setting": "[8]; read-out: Cisplatine IC50, compound (175) 10.0 μM", "value": 24.2, "unit": "µM"},
      {"measurement": "IC50", "setting": "[8]; read-out: Cisplatine IC50, compound (175) 30.0 μM", "value": 29.7, "unit": "µM"}
    ]}
  ]
}
